# Measured affinities in a library of Ab-14 light chain variants

From the AlphaSeq antibody data of Engelhart et al. 2022 (doi:10.1038/s41597-022-01779-4), copy in the FLAb collection.

Binding partner: SARS-CoV-2 spike HR2 peptide, sequence PDVDLGDISGINAS.

Parent: Ab-14, a human scFv built as VH, three GGGGS repeats, VL. Only the CDRs of the light chain vary.
VH: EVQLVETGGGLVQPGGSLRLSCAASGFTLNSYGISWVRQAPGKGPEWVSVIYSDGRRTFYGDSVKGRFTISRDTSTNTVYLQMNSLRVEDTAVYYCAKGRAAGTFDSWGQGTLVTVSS
VL: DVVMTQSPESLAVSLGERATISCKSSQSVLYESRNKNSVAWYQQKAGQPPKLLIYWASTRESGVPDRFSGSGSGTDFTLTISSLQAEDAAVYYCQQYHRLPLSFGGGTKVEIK

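The library (AAYL50) carries one to three amino acid substitutions per variant, with no insertions or deletions. Affinity was read by AlphaSeq, a pooled yeast mating assay with surface-displayed partners. Pairs that bind mate more often; barcode pairs of the diploids are counted by sequencing. Scores were corrected for input abundance and mapped to Kd with protein pairs of known affinity run in the same pool. The assay was run in three technical replicates.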

The whole VL of each variant is written out. Values are log10 of the apparent Kd in nM; lower means stronger binding. "ND" means that the variant was in the library but no mating with the target was seen in that replicate; the authors take this as a sign of poor binding, and no number exists. Nonspecific signal, from three strains lacking the peptide, appeared in 18% of pairings of library AAYL50, centred on 4.19 (5% of these signals below 2.99); values are not corrected for it. The control count says in how many pairings with the empty strains this scFv gave a signal, with their mean in brackets.

VL	replicates, log10 nM	empty controls
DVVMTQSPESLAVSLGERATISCKSSQSVLYESRNKIFVAWYQQKAGQPPKLLIYWASTREKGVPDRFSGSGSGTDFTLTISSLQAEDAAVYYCQQYHRLPLSFGGGTKVEIK	ND 5.32 4.53	3/9 (4.45)
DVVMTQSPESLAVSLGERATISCKSSQSVRYESRNKNKCAWYQQKAGQPPKLLIYWASTRESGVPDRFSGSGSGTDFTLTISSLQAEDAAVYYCQQYHRLPLSFGGGTKVEIK	ND 4.03 ND	2/9 (4.98)
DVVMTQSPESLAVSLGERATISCKPSQSVLYESRNKNSVAWYQQKAGQPPKLLIYWASTLESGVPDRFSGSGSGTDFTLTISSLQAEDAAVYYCQQFHRLPLSFGGGTKVEIK	ND ND 5.74	2/9 (3.50)
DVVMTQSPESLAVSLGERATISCVSSQSVLYESRNKNSVAWYQQKAGQPPKLLIYWASLFESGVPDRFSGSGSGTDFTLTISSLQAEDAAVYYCQQYHRLPLSFGGGTKVEIK	ND ND 5.26	3/9 (4.24)
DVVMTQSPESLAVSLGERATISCKSSQSVPYESRNKNSVAWYQQKAGQPPKLLIYWASTGESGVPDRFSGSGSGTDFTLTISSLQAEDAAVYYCQQQHRLPLSFGGGTKVEIK	ND 3.71 ND	2/9 (3.72)
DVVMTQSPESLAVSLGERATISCKSSQSVLYESRNKNSVAWYQQKAGQPPKLLIYWASTNESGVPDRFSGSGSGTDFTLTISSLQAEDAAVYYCQQRHRLPLSFGGGTKVEIK	ND 3.52 ND	2/9 (3.67)
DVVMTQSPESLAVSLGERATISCMSSQSVLYESRWKNSVAWYQQKAGQPPKLLIYWASTREDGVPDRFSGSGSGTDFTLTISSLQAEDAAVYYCQQYHRLPLSFGGGTKVEIK	1.73 1.71 1.72	0/9
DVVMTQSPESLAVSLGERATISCKSSQSVLYESRNGNSVAWYQQKAGQPPKLLIYWCSTRESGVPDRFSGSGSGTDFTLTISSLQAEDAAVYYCQQYHRLPLYFGGGTKVEIK	ND ND ND	0/9
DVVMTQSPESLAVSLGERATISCRSSQSVLYESRNSNSVAWYQQKAGQPPKLLIYWASTRESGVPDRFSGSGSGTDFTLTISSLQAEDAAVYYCQQYHRLKLSFGGGTKVEIK	ND 3.34 ND	0/9
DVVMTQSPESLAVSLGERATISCKSSQSVGYESRNKCSVAWYQQKAGQPPKLLIYWASTRESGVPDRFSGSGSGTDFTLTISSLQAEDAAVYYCQQNHRLPLSFGGGTKVEIK	ND ND ND	3/9 (4.10)
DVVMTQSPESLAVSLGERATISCKSSQSVLYESINYNSVAWYQQKAGQPPKLLIYWASTREQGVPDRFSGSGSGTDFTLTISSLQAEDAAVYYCQQYHRLPLSFGGGTKVEIK	1.09 1.31 1.31	0/9
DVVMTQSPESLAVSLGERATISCKSHQSVLYESRYKNSAAWYQQKAGQPPKLLIYWASTRESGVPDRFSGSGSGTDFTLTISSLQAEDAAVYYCQQYHRLPLSFGGGTKVEIK	ND ND ND	0/9
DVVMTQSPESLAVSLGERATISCKSSQSVLYESRNKESVPWYQQKAGQPPKLLIYWASTRENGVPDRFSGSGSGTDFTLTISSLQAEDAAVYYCQQYHRLPLSFGGGTKVEIK	4.74 4.31 6.20	4/9 (5.78)
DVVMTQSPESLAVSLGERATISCKSSQSVLWESRNKMSVAWYQQKAGQPPKLLIYWTSTRESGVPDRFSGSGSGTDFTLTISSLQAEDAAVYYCQQYHRLPLSFGGGTKVEIK	1.19 2.10 2.17	2/9 (4.03)
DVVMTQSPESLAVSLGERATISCKQSQSVLYESNNKNSVAWYQQKAGQPPKLLIYWASTRESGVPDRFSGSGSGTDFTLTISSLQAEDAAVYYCMQYHRLPLSFGGGTKVEIK	1.00 1.57 1.33	1/9 (3.36)
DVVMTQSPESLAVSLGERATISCKSSQSVKYESRNKNSVAWYQQKAGQPPKLLIYWASTRESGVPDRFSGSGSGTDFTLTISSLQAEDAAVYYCQQYFRLPLTFGGGTKVEIK	ND ND ND	0/9
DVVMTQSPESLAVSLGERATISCKSSQSVLYESRKKNSVAWYQQKAGQPPKLLIYWASTRESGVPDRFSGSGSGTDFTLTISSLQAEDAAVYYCQQYHRLPLSFGGGTKVEIK	ND ND 4.93	1/9 (3.31)
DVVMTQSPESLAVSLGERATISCKSSQSVLYESRNKNSVAWYQQKAGQPPKLLIYWAYTRESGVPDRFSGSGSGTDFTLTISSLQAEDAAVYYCQQYHRLPLSFGGGTKVEIK	1.39 1.56 1.68	0/9
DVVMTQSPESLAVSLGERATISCKSSQSVLYPSRNKNSVAWYQQKAGQPPKLLIYWASTRESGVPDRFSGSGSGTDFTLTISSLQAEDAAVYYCQQYWRLPLSFGGGTKVEIK	2.15 2.06 1.82	0/9
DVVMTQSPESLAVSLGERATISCKSAQSVLYESRNKVSVAWYQQKAGQPPKLLIYWASTRESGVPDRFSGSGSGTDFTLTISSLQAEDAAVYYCQQYHYLPLSFGGGTKVEIK	ND ND ND	1/9 (3.73)
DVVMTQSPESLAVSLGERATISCKSSQSGLYESRNKNSVAWYQQKAGQPPKLLIYWDSTRESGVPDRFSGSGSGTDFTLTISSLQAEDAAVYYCQQYHRLPLSFGGGTKVEIK	3.07 3.68 ND	4/9 (4.30)
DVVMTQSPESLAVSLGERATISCKSPQSVLYESRNKNSVAWYQQKAGQPPKLLIYWASTRESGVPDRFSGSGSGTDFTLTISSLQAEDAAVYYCQQYHCLMLSFGGGTKVEIK	ND ND ND	0/9
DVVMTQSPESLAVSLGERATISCKSWQSVLYESFNKNSVAWYQQKAGQPPKLLIYWASTRESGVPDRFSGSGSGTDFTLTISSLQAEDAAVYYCQQYRRLPLSFGGGTKVEIK	1.59 1.53 1.62	1/9 (3.76)

Repeated from above, the 3 best binders with a signal in all replicates:

VL	replicates, log10 nM	empty controls
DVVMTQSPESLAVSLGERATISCKSSQSVLYESINYNSVAWYQQKAGQPPKLLIYWASTREQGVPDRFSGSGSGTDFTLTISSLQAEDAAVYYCQQYHRLPLSFGGGTKVEIK	1.09 1.31 1.31	0/9
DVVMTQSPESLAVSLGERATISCKQSQSVLYESNNKNSVAWYQQKAGQPPKLLIYWASTRESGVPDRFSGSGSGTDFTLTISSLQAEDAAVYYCMQYHRLPLSFGGGTKVEIK	1.00 1.57 1.33	1/9 (3.36)
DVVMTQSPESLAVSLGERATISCKSSQSVLYESRNKNSVAWYQQKAGQPPKLLIYWAYTRESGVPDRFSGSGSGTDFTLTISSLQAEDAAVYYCQQYHRLPLSFGGGTKVEIK	1.39 1.56 1.68	0/9

In this assay the parent's reference entry averaged 0.65; its copy inside this library read 1.68.